Legend:
[1] = tested on: NC(=O)c1ccc[n+]([C@@H]2O[C@H](COP(=O)(O)OP(=O)(O)OC[C@H]3O[C@@H](n4cnc5c(N)ncnc54)[C@H](O)[C@@H]3O)[C@@H](O)[C@H]2O)c1; assay: purified protein; details: phosphite and NAD+ varied, 100 mM MOPS pH 7.25, 25 °C
O=[PH](O)O = assay: purified protein; details: 100 mM MOPS pH 7.25, 25 °C

Row | Substance | kcat [1] | Km (O=[PH](O)O; phosphite and NAD+ varied) | kcat (O=[PH](O)O; phosphite and NAD+ varied) | kcat/Km (O=[PH](O)O; phosphite and NAD+ varied) [M⁻¹ s⁻¹] | Km (O=[PH](O)O; NAD+ saturating 4 mM) | kcat (O=[PH](O)O; NAD+ saturating 4 mM) | kcat/Km (O=[PH](O)O; NAD+ saturating 4 mM) [M⁻¹ s⁻¹]
1 | 17X-PTDH (Stutzerimonas stutzeri; A319E/A325V/C336D/D13E/E130K/E175A/E332N/I150F/I313L/L276Q/M26I/Q132R/Q137R/Q215L/R275Q/R301A/V315A/V71I) | 0.041 (0.007) s^-1 | 19.4 (1.22) mM | 0.041 (0.007) s^-1 | 2.11 | – | – | –
2 | 17X-PTDH (Stutzerimonas stutzeri; A319E/A325V/C336D/D13E/E130K/E175A/E332N/I150F/I313L/L276Q/M26I/Q132R/Q137R/Q215L/R275Q/R301K/V315A/V71I) | 4.50 (0.72) s^-1 | 1.11 (0.12) mM | 4.50 (0.72) s^-1 | 4050 | – | – | –
3 | 17X-PTDH (Stutzerimonas stutzeri; A319E/A325V/C336D/D13E/E130K/E175A/E332N/I150F/I313L/L276Q/M26I/Q132R/Q137R/Q215L/R275Q/V315A/V71I/W134A) | – | – | – | – | 1.91 (0.11) mM | 1.73 (0.14) s^-1 | 901
4 | 17X-PTDH (Stutzerimonas stutzeri; A319E/A325V/C336D/D13E/E130K/E175A/E332N/I150F/I313L/L276Q/M26I/Q132R/Q137R/Q215L/R275Q/V315A/V71I) | 3.27 (0.24) s^-1 | 0.028 (0.007) mM | 3.27 (0.24) s^-1 | 117000 | – | – | –
